# Source: patent US5637617A, “Methods for use of GABAa receptor GABAergic compounds” (The Regents of the University of California, priority 1994, dated 1997)
# What was measured:
# [1] = test system: rat cerebral cortex GABAA receptors expressed in oocytes; settings: for inhibition of maximum / high-GABA responses / reduction of maximum IG-Actx: Example VIII; for reduction of maximum IG-Actx: drug 100 μM; for inhibitory effects on maximum IG-Actx: drug applied at 100 μM; for IC50 potency compared with fenamates: maximum IG-Actx
# [2] = test system: rat cerebral cortex GABAA receptors expressed in oocytes; assay: Effects on complete GABA concentration-response curves for IG-Actx; format: cell-based; settings: for facilitatory effects over complete GABA concentration-response curves / inhibitory effects over complete GABA concentration-response curves: FIG. 5
smiles,measurement,setting,value
"O=C(O)c1ccccc1Nc1cccc([N+](=O)[O-])c1 [NPAA, N-(3-nitrophenyl) anthranilic acid]",inhibition of maximum / high-GABA responses,[1],inhibitory effects on currents elicited by high concentrations of GABA
same,reduction of maximum IG-Actx,[1],60±11%
CC(C(=O)O)c1ccc(-c2ccccc2)c(F)c1 (centres unmarked) [Flurbiprofen],inhibitory effects on maximum IG-Actx,[1],weak or marginal effects
O=C(O)Cc1ccccc1Nc1c(Cl)cccc1Cl [Diclofenac],inhibitory effects on maximum IG-Actx,[1],weak or marginal effects
CCCCC1C(=O)N(c2ccccc2)N(c2ccccc2)C1=O [Phenylbutazone],inhibitory effects on maximum IG-Actx,[1],weak or marginal effects
COc1ccc2c(c1)c(CC(=O)O)c(C)n2C(=O)c1ccc(Cl)cc1 [Indomethacin],inhibitory effects on maximum IG-Actx,[1],pronounced inhibition
same,IC50 potency compared with fenamates,[1],roughly half the potency of mefenamic acid
Cc1cccc(Nc2ccccc2C(=O)O)c1C [Mefenamic acid],shift of GABA concentration-response curve,[2]; 1 μM drug,shifted the concentration-response curve without reductions in slope or maximum response
same,reduction in maximum current / maximum responses,[2]; 10 μM drug,28±8%
same,GABA concentration at transition between net facilitatory and inhibitory effects,"[2]; 10 μM drug, FIG. 5A",approximately 100 μM
same,GABA concentrations at which drug had net inhibitory effects,[2]; 100 μM drug,> 20 µM
same,GABA response threshold in presence of drug,"[2]; 100 μM drug, threshold without drug ≈1 μM GABA",≥ 50 nM
same,facilitatory effects over complete GABA concentration-response curves,[2],highest efficacy in terms of facilitatory effects
same,inhibitory effects over complete GABA concentration-response curves,[2],weakest inhibitor
O=C(O)c1ccccc1Nc1cccc(C(F)(F)F)c1 [Flufenamic acid],facilitatory effects over complete GABA concentration-response curves,[2],intermediate activities
same,inhibitory effects over complete GABA concentration-response curves,[2],intermediate activities
"Cc1ccc(Cl)c(Nc2ccccc2C(=O)O)c1Cl [Meclofenamate, Meclofenamic acid]",facilitatory effects over complete GABA concentration-response curves,[2],intermediate activities
same,inhibitory effects over complete GABA concentration-response curves,[2],intermediate activities
Nc1ccccc1 [aniline],inhibition of maximum / high-GABA responses,[1],inactive as inhibitors
O=C(O)c1cccnc1Nc1cccc(C(F)(F)F)c1 [Niflumic acid],reduction in maximum current / maximum responses,[2]; 10 μM drug,54 ±1%
same,shift of GABA concentration-response curve,[2]; 10 μM drug,no clear leftward shifts in concentration-response curves
same,GABA concentrations at which drug had net inhibitory effects,"[2]; 10 μM drug, FIG. 5B",> 20 µM
same,facilitatory effects over complete GABA concentration-response curves,[2],weakest facilitatory effects
same,inhibitory effects over complete GABA concentration-response curves,[2],strongest inhibitor
same,surmountability of inhibition of IG-Actx,"[2]; GABA increased from 3 to 30 mM, 10 or 100 μM niflumic acid",little change in the level of inhibition
"O=C(O)c1cc(-c2ccc(F)cc2F)ccc1O [Diflunisal, diflunisal]",inhibitory effects on maximum IG-Actx,[1],pronounced inhibition
same,IC50 potency compared with fenamates,[1],slightly less potent than flufenamic and meclofenamic acids
Nc1ccccc1C(=O)O [anthranilic acid],inhibition of maximum / high-GABA responses,[1],inactive as inhibitors
"O=C(O)c1ccccc1Nc1ccccc1 [PAA, N-phenyl-anthranilic acid]",reduction of maximum IG-Actx,[1],35-45%
CC1=C(CC(=O)O)c2cc(F)ccc2/C1=C\c1ccc([S+](C)[O-])cc1 (centres unmarked) [Sulindac],inhibitory effects on maximum IG-Actx,[1],weak or marginal effects
"Cc1ccccc1Nc1ccccc1C(=O)O [TAA, N-(O-tolyl) anthranilic acid]",inhibition of maximum / high-GABA responses,[1],weakly inhibited maximum GABA responses
same,reduction of maximum IG-Actx,[1],approximately 35%
